The values that follow are results of earlier work, collected in patent publication US20120301405A1, “Simple Mechanical Procedure and Product for Deterring Substance Abuse” (priority 2005, published 2012).

For this data set the following is noted: value in square brackets.

For the compound `CN1C(=O)CN=C(c2ccccc2F)c2cc([N+](=O)[O-])ccc21` [Flunitrazepam], the “Elimination ½-Life (h) [active metabolite]” value was “[36-200] h”.
